# Literature values in publication PMC3411462, “Long-acting κ opioid antagonists nor-BNI, GNTI and JDTic: pharmacokinetics in mice and lipophilicity” (BMC Pharmacology, 2012).
# System: μ opioid receptor
# Conditions: highest sub-lethal i.c.v. dose; cited from earlier work
substance,measurement,value
β-chlornaltrexamine,"μ antagonism, duration",less than 6 days
